Legend:
[1] = biological target: T1, Fatty-acid amide hydrolase 1 (Homo sapiens, UniProt O00519); assay: Inhibition of human FAAH assessed as kinact/Ki ratio incubated for 15 min in presence of glutamate dehydrogenase by 384-well format microplate reader assay
Summary of the method: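 Purified recombinant human FAAH (E. coli-expressed, >95% pure by SDS-PAGE) in a glutamate dehydrogenase-coupled assay in 384-well format. Oleamide is the substrate: ammonia released on hydrolysis drives stoichiometric NAD⁺ formation, monitored spectrophotometrically at 340 nm on a microplate reader. The overall potency, k_inact/K_i, is derived from time-dependent inactivation.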

Amino acid sequences for entries named in this document (tags omitted).
UniProt O00519, whole entry: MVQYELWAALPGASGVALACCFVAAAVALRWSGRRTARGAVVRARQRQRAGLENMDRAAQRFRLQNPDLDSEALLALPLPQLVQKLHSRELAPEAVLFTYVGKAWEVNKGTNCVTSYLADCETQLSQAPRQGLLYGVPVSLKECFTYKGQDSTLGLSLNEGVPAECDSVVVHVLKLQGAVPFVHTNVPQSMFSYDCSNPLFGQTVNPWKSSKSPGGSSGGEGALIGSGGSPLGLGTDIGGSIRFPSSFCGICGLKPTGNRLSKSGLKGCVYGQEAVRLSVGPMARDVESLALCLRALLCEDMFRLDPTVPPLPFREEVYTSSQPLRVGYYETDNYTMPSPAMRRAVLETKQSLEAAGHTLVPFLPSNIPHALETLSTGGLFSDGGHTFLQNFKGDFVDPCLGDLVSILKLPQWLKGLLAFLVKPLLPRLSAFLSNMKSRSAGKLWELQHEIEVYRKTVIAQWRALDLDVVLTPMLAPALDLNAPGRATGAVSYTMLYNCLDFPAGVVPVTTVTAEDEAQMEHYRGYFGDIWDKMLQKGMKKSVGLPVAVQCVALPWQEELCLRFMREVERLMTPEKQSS
UniProt P97612, whole entry: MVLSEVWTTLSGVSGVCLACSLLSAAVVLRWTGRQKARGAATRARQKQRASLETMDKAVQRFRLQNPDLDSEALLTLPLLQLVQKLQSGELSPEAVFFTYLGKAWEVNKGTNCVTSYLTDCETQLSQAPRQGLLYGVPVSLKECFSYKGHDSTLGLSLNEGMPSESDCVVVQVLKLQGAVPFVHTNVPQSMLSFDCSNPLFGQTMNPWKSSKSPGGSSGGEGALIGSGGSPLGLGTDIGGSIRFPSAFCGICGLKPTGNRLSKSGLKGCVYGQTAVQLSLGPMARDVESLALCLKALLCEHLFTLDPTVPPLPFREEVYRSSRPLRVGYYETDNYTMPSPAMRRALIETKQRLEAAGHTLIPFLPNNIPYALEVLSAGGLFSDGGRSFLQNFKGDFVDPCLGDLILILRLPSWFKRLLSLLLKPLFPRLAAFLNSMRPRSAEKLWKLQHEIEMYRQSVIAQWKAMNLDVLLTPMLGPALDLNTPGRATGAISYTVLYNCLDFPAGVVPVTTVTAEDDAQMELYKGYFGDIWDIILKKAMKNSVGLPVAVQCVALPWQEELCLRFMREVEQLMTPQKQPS

[2] = biological target: Fatty-acid amide hydrolase 1 (Rattus norvegicus) (UniProt P97612); assay: Inhibition of rat FAAH assessed as kinact/Ki ratio in presence of glutamate dehydrogenase by 384-well format microplate reader assay
Summary of the method: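 Purified recombinant FAAH (>95% pure), human or rat. Glutamate dehydrogenase-coupled assay in 384-well format, 50 μl final volume. NAD⁺ formed from ammonia released by oleamide hydrolysis, followed at 340 nm.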

[3] = biological target: T1, Fatty-acid amide hydrolase 1; assay: Inhibition of human FAAH assessed as kinact/Ki ratio in presence of glutamate dehydrogenase by 384-well format microplate reader assay
Summary of the method: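 Glutamate dehydrogenase-coupled assay in 384-well format, 50 μl final volume. NAD⁺ formed from ammonia released by oleamide hydrolysis, followed at 340 nm.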

Compound: O=C(Nc1cccnn1)N1CCC(=Cc2cccc(Oc3ccc(C(F)(F)F)cn3)c2)CC1
- IC50 [1]: 32.4 nM
- Ratio [2]: 32400 M⁻¹ s⁻¹
- Ratio [3]: 40300 M⁻¹ s⁻¹

— ChEMBL document CHEMBL5653606 (J Pharmacol Exp Ther, 2011)
